Assay outcomes: PubChem BioAssay, National Center for Advancing Translational Sciences (NCATS)
Nrf2 activator: activates Nrf2 signaling; AREc32 ARE-luciferase reporter (MCF7-derived line), luminescence, 24 h; Potency, µM (series often up to 46.1 µM), hits mostly activators; 0.31% of 410,000 active; AID 624171; also: nearly all actives have a fitted effect of over 65% in size
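Quantitative high-throughput format: AREc32 reporter cells, 1000 per well, received compound by pin transfer and were incubated 24 hr at 37 deg C, 5% CO2, before Steady-Glo luminescence detection.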
miR-21 reporter: miR-21 reporter, rising signal | HeLa miR-21 FLuc reporter, luciferase, 48 h | Potency, µM (top dose mostly 38.3 µM) | 340,000 tested, under 10 active | AID 2288; active = well fitted rising curve with a large enough effect; inconclusive = small, poorly fitted or top-dose-only effect; inactive = no such curve, though single readings can be large or run the other way;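 further: miR-21 action dims this reporter so a rising signal means less miR-21 action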
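Using DMEM plus 10% FBS, HeLa miR-21-FLuc cells are incubated with test compounds (final up to about 40uM) for 48 hours; firefly luciferase signal is then imaged following reagent-mediated lysis.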
Nrf2 block: blocks Nrf2 signaling; A549 ARE-Fluc reporter, luciferase luminescence, 18-24 h; 2.1% of 360,000 active; Potency, µM (series often up to 46 µM), hits mostly inhibitors; also: nearly all actives have a fitted effect of over 60% in size
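Reporter: ARE-Fluc in A549. Exposure: 18-24 h, 37 °C, 5% CO2, 5% FBS OPTI-MEM. Readouts: fluorescent cytotoxicity (CellTiter-Fluor), then luminescent Nrf2 signal after BugLite.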
A549 viability: counter-screen for Nrf2 inhibitors: cytotoxicity in A549 cells | A549 ARE-Fluc cells, CellTiter-Fluor viability, 18-24 h | Potency, µM (titrated, usually from 46 µM), usual class: inhibitors | 0.16% of 390,000 active
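Cytotoxicity counterscreen: CellTiter-Fluor fluorescence was measured in A549 ARE_Fluc cells after 18-24 h of compound exposure in a concentration series. The subsequent BugLite luminescent read reports ARE-luciferase activity.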
IL2 activator: activators of IL-2; IL-2 activation reporter assay, cell-based qHTS; stimulated with anti-CD3/CD4/CD28 beads; in transgenic mouse T cells; activation, % (series mostly up to about 46 µM); 0.065% of 360,000 active; AID 652025; in the data active = activation above about 50%; inconclusive = mostly about 30% to 49%
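Unstimulated transgenic mouse T cells, 750 per well, received compound and, after 60 minutes, anti-CD3/anti-CD4 bead plus anti-CD28 stimulation. EGFP and DsRed were quantified after 18 hours.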
ClpP mod: qHTS Assay for Activators of ClpP | Potency, µM (series often up to 57.5 µM) | purified B. subtilis ClpP, FRET peptide cleavage, 20 min | AID 651965, 2013 | 1.9% of 340,000 active | ATP-dependent Clp protease proteolytic subunit (Bacillus subtilis (strain 168)), P80244; active = well fitted falling curve with a large enough effect; inconclusive = small, poorly fitted or top-dose-only effect; inactive = no such curve, though single readings can be large or run the other way; also: the source files actives as falling curves though it sought activators and does not explain the sign; nearly all actives have a fitted effect of over 65% in size
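FRET quenching reversal measured ClpP activation: 10 microg/mL B. subtilis ClpP at pH 8 with the FRET-FV decapeptide, read at 430 nm after 320 nm excitation. The 20-min minus 0-min signal was scaled between DMSO/no-enzyme wells and ADEP (5.8 microM final).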
Large screens that a line does not name were inactive. Most compounds without a hit are left out; they make up all but 3.7% or so of the library. Unless noted, calls follow the shape of the dose curve; as a rule, active = well fitted curve in the direction sought with a large enough effect; inconclusive = small, poorly fitted or top-dose-only effect, or another doubt; inactive = no such curve, though single readings can be large; an effect the other way counts as inactive or inconclusive.

O=C1C(NS(=O)(=O)c2ccccc2)=C(N2CCN(c3ccc(F)cc3)CC2)C(=O)c2ccccc21	none
O=C1C(NS(=O)(=O)c2cccs2)=C(N2CCN(c3cccc(Cl)c3)CC2)C(=O)c2ccccc21	Nrf2 block 20.6µM, A549 viability inconclusive
O=C(NCc1cccnc1)/C(=C\c1ccc(-c2ccc(Br)cc2)o1)S(=O)(=O)c1ccccc1	Nrf2 activator inconclusive, miR-21 reporter inconclusive, Nrf2 block inconclusive, A549 viability inconclusive
O=C(NCc1cccnc1)/C(=C/c1ccc(-c2ccc(Cl)cc2)o1)S(=O)(=O)c1ccccc1	Nrf2 activator inconclusive, miR-21 reporter inconclusive, Nrf2 block 20.6µM, A549 viability inconclusive
CC(OC(=O)c1cc2c(ccc3ccccc32)oc1=O)c1nc2ccccc2s1 (stereo unspecified)	ClpP mod 2.82µM
COc1ccccc1-n1c(-c2ccc(NS(C)(=O)=O)cc2)n[nH]c1=S	ClpP mod 28.2µM
O=C1c2cccc3cccc(c23)C(=O)N1OS(=O)(=O)c1ccccc1	Nrf2 activator inconclusive, ClpP mod 28.2µM
O=C1c2cccc3cccc(c23)C(=O)N1OS(=O)(=O)c1ccc(Br)cc1	none (no result: ClpP mod)
O=C(Nc1ccc(N2CCOCC2)nc1)c1ccc(Cl)cc1	Nrf2 block 20.6µM
O=C(c1ccc(S(=O)(=O)Cc2cc(F)ccc2F)c([N+](=O)[O-])c1)N1CCCC1	Nrf2 activator 8.91µM, Nrf2 block inconclusive (no result: ClpP mod)
CCCOc1cccc(C2c3c(oc4ccc(F)cc4c3=O)C(=O)N2CCc2ccc(OC)cc2)c1 (stereo unspecified)	none (no result: IL2 activator)
Cc1ccc(-n2c(SCC(=O)N3CC(=O)Nc4ccccc43)nc3ccccc3c2=O)cc1	Nrf2 block inconclusive
O=C1CN(C(=O)CSc2nc(-c3ccc(Cl)cc3)cs2)c2ccccc2N1	Nrf2 block 23.1µM
Cc1cccc(C)c1-n1c(SCC(=O)N2CC(=O)Nc3ccccc32)nc2ccccc2c1=O	Nrf2 block 23.1µM
CC1CCN(C(=O)CN2c3ccc(Br)cc3-c3ccccc3S2(=O)=O)CC1	none (no result: IL2 activator)
O=C(O)CCSc1nnc(-c2ccc3c(c2)OCO3)o1	miR-21 reporter inconclusive, Nrf2 block 8.2µM, ClpP mod inconclusive
CCOc1ccc(CNC(=O)C2CCCN(c3nn4cc(-c5ccc(OC)cc5)nc4s3)C2)cc1 (stereo unspecified)	none (no result: IL2 activator)
CNc1ccc(Br)cc(C(=O)/C=C/c2cccc(Cl)c2Cl)c1=O	Nrf2 activator 7.94µM
CCc1cccc(NC(=O)CC2Oc3ccc(C)cc3NC2=O)c1 (stereo unspecified)	none (no result: IL2 activator)
COc1ccc(C(=O)Nn2cnc3scc(-c4cccs4)c3c2=O)c(O)c1	Nrf2 block inconclusive, ClpP mod 31.6µM
O=C(O)c1ccc2nc(C(F)(F)F)[nH]c2c1	none
COc1ccc2nc(C)c3c(c2c1)OC(C)C3 (stereo unspecified)	ClpP mod inconclusive
CCOC(=O)c1ccc2nc(C)c3c(c2c1)OC(C)C3 (stereo unspecified)	ClpP mod 31.6µM
CCOC(=O)c1ccc2nc(C(F)(F)F)[nH]c(=O)c2c1	ClpP mod 3.98µM
CCc1ccc(NC(=O)CSc2nc(-c3ccccc3)no2)cc1	none (no result: IL2 activator)
CN(C)c1ccc(C=Nc2cnc3ccccc3c2)cc1	none (no result: Nrf2 activator, miR-21 reporter, Nrf2 block, A549 viability, IL2 activator)
COC(=O)c1cc2c(ccn2-c2ccc(F)cc2)n1Cc1ccc(C#N)cc1	none
COC(=O)c1cc2c(ccn2-c2ccc(F)cc2)n1Cc1ccc(OC)cc1	Nrf2 block inconclusive, ClpP mod 22.4µM
Cc1ccc(C2c3c(oc4ccccc4c3=O)C(=O)N2c2ccc(C)cn2)cc1 (stereo unspecified)	none (no result: IL2 activator)
CCn1c(COc2ccc(Cl)cc2)nnc1SC1CCc2ccccc2C1=O (stereo unspecified)	Nrf2 block 25.9µM
CCn1c(COc2ccc(Cl)cc2)nnc1SCc1ccc(C#N)cc1	Nrf2 block inconclusive
